Holding throughout (format): cell-based
One experiment has as its target T1, hTA1 b2N (Homo sapiens, UniProt Q96RJ0).
T1 construct: read by me as the first 25 residues of β2AR (N); expressed in transfected cells; host or cells: HEK293T
The experiment in a line: GloSensor cAMP accumulation assay, b2N construct. Conditions: n=2.

By UniProt entry, the sequences of proteins in these tests, tags left out. Chains listed by the source or under a name are the forms on record and can include a tag or linker.
UniProt Q96RJ0, with tags, fused parts or gaps: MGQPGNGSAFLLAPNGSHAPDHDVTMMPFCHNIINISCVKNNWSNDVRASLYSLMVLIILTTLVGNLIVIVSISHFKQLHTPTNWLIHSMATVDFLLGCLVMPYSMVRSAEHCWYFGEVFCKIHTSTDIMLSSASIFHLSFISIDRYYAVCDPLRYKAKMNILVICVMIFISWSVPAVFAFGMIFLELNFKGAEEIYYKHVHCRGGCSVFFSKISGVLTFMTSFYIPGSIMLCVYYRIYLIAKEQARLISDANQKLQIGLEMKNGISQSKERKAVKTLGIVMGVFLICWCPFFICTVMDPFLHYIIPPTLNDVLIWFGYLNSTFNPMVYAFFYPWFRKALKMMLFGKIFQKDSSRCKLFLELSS
UniProt Q96RJ0, whole entry C88S: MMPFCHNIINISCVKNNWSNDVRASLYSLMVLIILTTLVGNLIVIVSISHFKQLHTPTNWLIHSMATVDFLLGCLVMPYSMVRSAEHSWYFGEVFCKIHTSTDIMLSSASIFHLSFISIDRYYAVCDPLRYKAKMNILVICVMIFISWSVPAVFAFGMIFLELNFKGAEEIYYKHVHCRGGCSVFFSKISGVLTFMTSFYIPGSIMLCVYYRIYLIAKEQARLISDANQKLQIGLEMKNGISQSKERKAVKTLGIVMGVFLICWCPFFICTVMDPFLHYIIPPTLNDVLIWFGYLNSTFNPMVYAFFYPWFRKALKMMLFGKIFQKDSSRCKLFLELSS
UniProt Q96RJ0, whole entry C88S/C178S: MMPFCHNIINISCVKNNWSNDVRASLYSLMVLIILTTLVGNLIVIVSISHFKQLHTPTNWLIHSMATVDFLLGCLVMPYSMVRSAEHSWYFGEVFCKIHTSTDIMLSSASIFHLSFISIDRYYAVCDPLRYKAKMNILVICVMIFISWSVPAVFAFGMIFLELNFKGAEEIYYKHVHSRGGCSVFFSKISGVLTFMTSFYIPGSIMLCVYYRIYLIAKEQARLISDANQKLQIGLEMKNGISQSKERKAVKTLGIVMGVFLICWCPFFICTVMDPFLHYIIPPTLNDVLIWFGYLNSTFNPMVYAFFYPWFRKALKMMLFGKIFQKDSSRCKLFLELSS
UniProt Q96RJ0, whole entry W264F: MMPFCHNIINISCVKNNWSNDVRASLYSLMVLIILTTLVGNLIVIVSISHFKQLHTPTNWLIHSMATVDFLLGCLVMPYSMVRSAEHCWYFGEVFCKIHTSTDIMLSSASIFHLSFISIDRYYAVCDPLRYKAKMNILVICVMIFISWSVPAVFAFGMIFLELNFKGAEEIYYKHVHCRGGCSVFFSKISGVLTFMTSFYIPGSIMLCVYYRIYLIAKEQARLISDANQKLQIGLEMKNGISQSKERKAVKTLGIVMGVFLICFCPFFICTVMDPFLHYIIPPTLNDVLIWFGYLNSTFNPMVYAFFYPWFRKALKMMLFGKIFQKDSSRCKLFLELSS
UniProt Q96RJ0, whole entry I290N: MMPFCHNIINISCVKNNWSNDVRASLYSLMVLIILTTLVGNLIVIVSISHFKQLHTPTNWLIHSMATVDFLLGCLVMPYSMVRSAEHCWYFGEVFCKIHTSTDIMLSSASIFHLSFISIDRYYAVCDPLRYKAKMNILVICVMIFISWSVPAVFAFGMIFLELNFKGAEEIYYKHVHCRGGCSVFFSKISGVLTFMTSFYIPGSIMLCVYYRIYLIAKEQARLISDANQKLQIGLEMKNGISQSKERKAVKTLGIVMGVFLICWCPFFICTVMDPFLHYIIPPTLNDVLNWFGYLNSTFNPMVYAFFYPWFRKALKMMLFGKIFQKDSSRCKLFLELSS
UniProt Q96RJ0, whole entry I290Y: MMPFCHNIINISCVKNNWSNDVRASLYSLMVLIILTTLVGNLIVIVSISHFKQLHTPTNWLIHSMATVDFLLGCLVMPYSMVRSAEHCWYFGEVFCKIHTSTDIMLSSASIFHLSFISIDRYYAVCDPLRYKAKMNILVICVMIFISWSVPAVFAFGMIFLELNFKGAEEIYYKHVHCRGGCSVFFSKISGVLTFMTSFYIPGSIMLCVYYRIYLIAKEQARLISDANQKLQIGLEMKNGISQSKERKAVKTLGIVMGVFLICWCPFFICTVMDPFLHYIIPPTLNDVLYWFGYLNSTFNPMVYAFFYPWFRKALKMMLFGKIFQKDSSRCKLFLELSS

The next experiment concerns the target T2, hTA1 C13S (Homo sapiens, UniProt Q96RJ0, C13S).
T2 construct: expressed in transfected cells; host or cells: HEK293T
T2 sequence (Q96RJ0 1-339 C13S): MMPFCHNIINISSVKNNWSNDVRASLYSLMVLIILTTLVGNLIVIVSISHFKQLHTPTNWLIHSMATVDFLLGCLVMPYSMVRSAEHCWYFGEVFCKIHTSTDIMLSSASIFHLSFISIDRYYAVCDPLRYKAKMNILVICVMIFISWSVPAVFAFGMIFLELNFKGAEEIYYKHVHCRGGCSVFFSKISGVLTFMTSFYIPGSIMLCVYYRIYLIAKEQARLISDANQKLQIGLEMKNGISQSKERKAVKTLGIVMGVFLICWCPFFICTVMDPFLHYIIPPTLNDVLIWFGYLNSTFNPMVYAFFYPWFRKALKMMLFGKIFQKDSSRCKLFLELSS
The experiment in a line: GloSensor cAMP accumulation assay, C13S mutant. For orientation: Changes in cAMP serve as a functional read-out for many G protein-coupled receptors.

The next experiment has as its target T3, hTA1 C88S (Homo sapiens, UniProt Q96RJ0, C88S).
T3 construct: expressed in transfected cells; host or cells: HEK293T
T3 sequence (Q96RJ0 1-339 C88S): T2 sequence (Q96RJ0 1-339 C13S) with S13C, C88S
Briefly: GloSensor cAMP accumulation assay, C88S mutant.

The target of the next experiment is T4, hTA1 C88/178S (Homo sapiens, UniProt Q96RJ0, C178S/C88S).
T4 construct: expressed in transfected cells; host or cells: HEK293T
T4 sequence (Q96RJ0 1-339 C88S/C178S): T2 sequence (Q96RJ0 1-339 C13S) with S13C, C88S, C178S
Briefly: GloSensor cAMP accumulation assay, C88S/C178S double mutant.

A further experiment addresses T5, hTA1 W264F (Homo sapiens, UniProt Q96RJ0, W264F).
T5 construct: expressed in transfected cells; host or cells: HEK293T
T5 sequence (Q96RJ0 1-339 W264F): T2 sequence (Q96RJ0 1-339 C13S) with S13C, W264F
Briefly: GloSensor cAMP accumulation assay, W264F mutant.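 Further: cells transiently transfected with receptor plus GloSensor, luminescence read 30 min after agonist addition at room temperature, concentration-response curves fitted by log(agonist) vs response regression.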

The next experiment concerns the target T6, hTA1 I290N (Homo sapiens, UniProt Q96RJ0, I290N).
T6 construct: expressed in transfected cells; host or cells: HEK293T
T6 sequence (Q96RJ0 1-339 I290N): T2 sequence (Q96RJ0 1-339 C13S) with S13C, I290N
Briefly: GloSensor cAMP accumulation assay, I290N mutant.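 Further: cells transiently co-expressing hTA1 and the GloSensor cAMP biosensor, luminescence read 30 min after compound addition at room temperature, efficacy scaled to the maximal β-PEA response.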

The target of another experiment is T7, hTA1 I290Y (Homo sapiens, UniProt Q96RJ0, I290Y).
T7 construct: expressed in transfected cells; host or cells: HEK293T
T7 sequence (Q96RJ0 1-339 I290Y): T2 sequence (Q96RJ0 1-339 C13S) with S13C, I290Y
Briefly: GloSensor cAMP accumulation assay, I290Y mutant. The following applies: I290Y.

Substitutions are numbered along the chain they refer to. Values joined by “and” are separate entries in the source; they are usually repeats but may differ in a detail not shown here. Equal entries are not always repeated. Where two headings read alike, the source gives them in different places.

Regarding `CCc1[nH]nc(C(=O)Nc2ccc([C@H]3CNCCO3)cc2)c1C` [ralmitaront], the EC50 was 25.7 nM on hTA1 b2N; 140 nM on hTA1 C13S (C13S, n=2, read-out: EC50); 158 nM and 124 nM at hTA1 C13S (hTA1 C13S, mean of 3 replicates, one line per independent experiment, read-out: pEC50 values, Mean (converted)); 64 nM and 76.5 nM at hTA1 C88S (Mean of fit per experiment, read-out: pEC50 values (converted)); 70 nM on hTA1 C88S (n=2, read-out: EC50); 113 nM on hTA1 C88/178S (C88/178S, n=2, read-out: EC50). The EC50 was 145 nM and 88 nM on hTA1 C88/178S (C88S, C178S, each row is one independent experiment, 3 replicates, read-out: pEC50 values, Mean (converted)); 7220 nM and 1730 nM at hTA1 W264F (W246F mutant (so in the source), each line an independent experiment, 3 replicates, read-out: pEC50 values (Mean) (converted)); 3530 nM at hTA1 W264F (W264F, n=2, read-out: EC50); 94.7 nM on hTA1 I290N (I290N, n=2, read-out: EC50); 153 nM and 58.6 nM on hTA1 I290N (hTA1 I290N mutant, Figure 3B source data, each grid row a separate experiment, 3 replicates, read-out: pEC50 values (Mean) (converted)); 43.7 nM on hTA1 I290Y (read-out: EC50). In addition, the EC50 on hTA1 I290Y (single experiments (3 replicates each), read-out: pEC50 values, Mean (converted)) was 14.1 nM and 47.3 nM and 125 nM.
